PMC6512341 (ACS chemical neuroscience, 2018)

Assay: Pilot brain and plasma pharmacokinetic studies of SW-100
Assay type: in vivo, C57BL/6 male mice
Conditions: male, C57BL/6, mouse, ip, 20 mg/kg

`O=C(NO)c1ccc(CN2CCCc3cc(Cl)ccc32)cc1` [SW-100, 4-((6-Chloro-3,4-dihydroquinolin-1(2H)-yl)methyl)-N-hydroxybenzamide] showed a Kp at 4 h of 4.54.
